Target: Adrenergic receptor alpha-2 (Rattus norvegicus, UniProt P22086+P19328+P22909)
Test: Displacement of [3H]clonidine from alpha-2 adrenergic receptor in rat brain
Assay type: tissue-based
Procedure, shortened: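 Rat brain radioligand displacement binding. IC50 values (μM) were derived by nonlinear regression from four or five concentrations of compound.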

Amino acid sequences for entries named in this document (tags omitted). A change or cut given only in a name is not applied to a line headed by its entry.
UniProt P22086: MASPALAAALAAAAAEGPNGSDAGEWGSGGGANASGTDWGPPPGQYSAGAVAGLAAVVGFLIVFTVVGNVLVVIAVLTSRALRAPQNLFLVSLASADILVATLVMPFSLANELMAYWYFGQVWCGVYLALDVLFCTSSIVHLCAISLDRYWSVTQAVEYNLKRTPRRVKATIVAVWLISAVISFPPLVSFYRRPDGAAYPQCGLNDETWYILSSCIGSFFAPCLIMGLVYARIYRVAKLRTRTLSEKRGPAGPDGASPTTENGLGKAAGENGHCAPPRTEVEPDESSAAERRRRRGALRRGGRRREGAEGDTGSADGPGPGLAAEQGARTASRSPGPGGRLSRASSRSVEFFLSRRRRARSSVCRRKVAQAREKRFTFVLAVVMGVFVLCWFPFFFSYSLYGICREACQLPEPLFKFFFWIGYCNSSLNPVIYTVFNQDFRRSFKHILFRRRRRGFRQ
UniProt P19328: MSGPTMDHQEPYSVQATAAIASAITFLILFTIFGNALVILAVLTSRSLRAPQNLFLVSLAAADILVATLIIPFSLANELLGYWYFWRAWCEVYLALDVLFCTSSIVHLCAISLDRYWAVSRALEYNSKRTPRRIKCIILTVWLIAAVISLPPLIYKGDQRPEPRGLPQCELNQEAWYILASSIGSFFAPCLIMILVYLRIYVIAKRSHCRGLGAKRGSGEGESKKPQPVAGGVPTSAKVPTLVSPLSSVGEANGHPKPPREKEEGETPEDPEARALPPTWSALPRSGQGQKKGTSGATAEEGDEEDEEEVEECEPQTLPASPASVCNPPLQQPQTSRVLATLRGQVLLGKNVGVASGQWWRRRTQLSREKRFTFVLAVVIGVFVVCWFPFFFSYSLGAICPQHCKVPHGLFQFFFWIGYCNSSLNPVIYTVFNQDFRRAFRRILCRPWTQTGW
UniProt P22909: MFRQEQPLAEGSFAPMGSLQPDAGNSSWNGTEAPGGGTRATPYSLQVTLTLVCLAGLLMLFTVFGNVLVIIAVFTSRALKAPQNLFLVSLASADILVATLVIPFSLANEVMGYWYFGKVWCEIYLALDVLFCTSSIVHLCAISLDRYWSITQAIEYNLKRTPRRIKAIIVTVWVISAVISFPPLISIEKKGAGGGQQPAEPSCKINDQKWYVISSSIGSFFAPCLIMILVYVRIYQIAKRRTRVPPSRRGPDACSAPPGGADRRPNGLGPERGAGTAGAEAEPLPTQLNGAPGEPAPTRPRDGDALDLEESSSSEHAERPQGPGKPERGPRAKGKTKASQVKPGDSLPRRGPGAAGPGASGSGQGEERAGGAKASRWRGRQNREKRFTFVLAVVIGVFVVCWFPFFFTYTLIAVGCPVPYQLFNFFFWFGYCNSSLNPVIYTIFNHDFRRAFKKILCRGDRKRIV

- IC50: 1300 nM
Compound: CSc1ccc2c(c1)N(CCC1CCCCN1C)c1ccccc1S2 (stereo unspecified) [THIORIDAZINE]

— ChEMBL document CHEMBL1124042, “Synthesis and potential antipsychotic activity of 1H-imidazo[1,2-c]pyrazolo[3,4-e]pyrimidines” (J Med Chem, 1988)
